Results as given in patent US6869930B1, “Acylated insulin” (priority 1993, dated 2005).

Test: Lipophilicity relative to human insulin, k′rel, by isocratic RP-HPLC (LiChrosorb RP18)
Format: physicochemical
Conditions: 40° C., pH 7.3
Procedure: The elution was monitored by following the UV absorption of the eluate at 214 nm. Void time, t0, was found by injecting 0.1 mM sodium nitrate.

For “Lys^B29(N^ε-[N^α-hexadecanoyl-Glu(−)-OH]) Human Insulin [Example 37]”, which “lipophilicity relative to human insulin, k′rel” value is on record?
Its value is 67.
